Literature values as cited in patent publication US8946301B2, “Targeting of T-lymphocytes to treat amyotrophic lateral sclerosis” (ALS Therapy Development Institute, priority 2011, dated 2015).

Tested on: patients with ALS
Settings: Borras-Blasco et al. 1998; cited from earlier work

In the case of `Nc1nc2ccc(OC(F)(F)F)cc2s1` [Riluzole™], the “survival time of ALS patients” value is listed as “prolong survival time”.
